The values below are quoted from earlier work in US10857245B2, “Diagnostic imaging agent for early bone metastasis from cancer” (NIHON MEDI-PHYSICS CO., LTD., priority 2015, dated 2020).

This data set has as its system bone metastasis from breast cancer. The following applies: cited from earlier work.
Setting [1] is: type of bone metastasis decided by CT.

Take 2-[^18F]-2-deoxy-D-glucose: the “combined sensitivity of all sites” value (89 patients with breast cancer) was 80.0%. Besides, under setting [1], the “detection rate of osteoblastic bone metastasis” value is recorded as 55.6% and the “detection rate of osteolytic bone metastasis” value is listed as 100%.
